Assay [1] deals with T1, human 5-HT4B receptor (clone hp78a) (Homo sapiens, UniProt P34969).
T1 construct: The entire coding region of the human 5-HT4B receptor (1338 bp); expressed in transfected cells; host or cells: Cos-7 (monkey kidney), transient, plasmid hp78a/EXJ (pcEXV-5HT4B)
Put plainly: [3H]5-HT radioligand binding to membranes of Cos-7 cells transiently expressing clone hp78a. The settings on record: read-out: Ki (apparent dissociation constants for clone hp78a).

Protein sequences, listed by entry. Tags and fused reporters are not part of them. Residues count along the entry.
UniProt P34969, 1-445 isoform P34969-2: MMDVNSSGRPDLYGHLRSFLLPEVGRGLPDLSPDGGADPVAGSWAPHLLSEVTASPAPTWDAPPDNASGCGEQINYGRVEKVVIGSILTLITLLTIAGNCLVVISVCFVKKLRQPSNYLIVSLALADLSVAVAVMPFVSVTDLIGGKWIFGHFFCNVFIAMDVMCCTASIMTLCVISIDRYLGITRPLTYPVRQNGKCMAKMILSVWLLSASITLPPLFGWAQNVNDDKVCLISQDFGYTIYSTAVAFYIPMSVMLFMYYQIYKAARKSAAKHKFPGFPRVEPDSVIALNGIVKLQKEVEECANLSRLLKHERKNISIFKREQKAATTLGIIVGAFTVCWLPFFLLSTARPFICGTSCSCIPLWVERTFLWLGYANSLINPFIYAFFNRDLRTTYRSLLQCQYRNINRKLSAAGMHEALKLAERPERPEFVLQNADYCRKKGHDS

The target in assay [2] is T2, human 5-HT4B receptor (Homo sapiens, UniProt P34969).
T2 construct: The entire coding region of the human 5-HT4B receptor (1338 bp); expressed in transfected cells
Briefly: cAMP formation in intact, transiently transfected Cos-7 cells. The format is cell-based. Background: cAMP levels reflect the balance of adenylyl cyclase and phosphodiesterase activity.

Assay [3] deals with T2, human 5-HT4B receptor. The format is cell-based.
Assay [4] relates to 5-HT receptor present in glial membranes. Conditions: Fillion et al., 1980; property shared with hp78a; cited from earlier work.

In general, EC50 refers to the midpoint of the concentration-response curve. Higher therefore signals lower potency in that assay. For the molecule `CCCN(CCC)C1CCc2cccc(O)c2C1` (stereo not shown), in assay [1], the Ki is 466 ± 46 nM. Besides, at human 5-HT4B receptor [2] (1 μM drug, relative to basal levels), the “FOLD cAMP STIMULATION” value is reported as 1.7 ± 0.4. Also, on human 5-HT4B receptor [3], the “response relative to the maximum response elicited by 5-HT” value was “approximately half”. The same molecule had a 50% effective concentration (EC50) on human 5-HT4B receptor [3] (cAMP response, mean ± S.E.M., at least 3 experiments) of 17.2 µM.

Consider `NCCc1c[nH]c2ccc(C(N)=O)cc12` [5-CT, 5-Carboxamidotryptamine], for which, on human 5-HT4B receptor [2], the “increase in cAMP release over basal levels” value was 20 fold and the “maximum stimulation (Emax value)” value was determined as 2029±47 % basal cAMP release.

With `CSc1ccc2c(c1)C(N1CCN(C)CC1)Cc1ccccc1S2` (stereo not shown) [Methiothepin], in assay [4], the “antagonism” value is listed as “Potent antagonism”.

These data come from patent US6432655B1, “Method of obtaining compositions” (Synaptic Pharmaceutical Corporation, priority 1992, dated 2002).
